IL2 activator = activates IL-2 in a cell-based reporter assay; IL-2 activation reporter assay, cell-based qHTS; stimulated with anti-CD3/CD4/CD28 beads; in transgenic mouse T cells; activation, % (series mostly up to about 46 µM); 360,000 tested, 0.065% active; AID 652025; in the data active means activation above about 50%; inconclusive means mostly about 30% to 49%; further: 0% is about no effect
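EGFP and DsRed fluorescence is measured by plate cytometry in unstimulated transgenic mouse T cells exposed to compound for 60 minutes, then stimulated 18 hours at 37 degrees C with anti-CD3/anti-CD4 beads plus anti-CD28.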
miR-21 reporter = raises the signal of a miR-21 reporter | HeLa miR-21 FLuc reporter, luciferase, 48 h | Potency, µM (highest dose often 38.3 µM), for inactives: at the highest dose reporter change, positive = more light | 340,000 tested, under 10 active | AID 2288; active = well fitted rising curve with a large enough effect; inconclusive = small, poorly fitted or top-dose-only effect; inactive = no such curve, though single readings can be large or run the other way;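 also: % of control where 0% means no effect; miR-21 action dims this reporter so a rising signal means less miR-21 action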
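HeLa cells endogenously expressing miR-21, stably carrying CMV-driven firefly luciferase with a downstream miR-21 binding site, 2000 cells/well. Titrations up to approximately 40 uM, 48 hours; luciferase luminescence read.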
PINK1 modulator = PINK1 expression modulation. PINK1 immunofluorescence, high-content cytometry, 24 h. Potency, µM (series often up to 76.6 µM), inactives show at the highest dose activation (PINK1 increase), hits mostly activators. 410,000 tested, 0.2% active. AID 624263; active means well fitted activation curve with a large enough effect; inconclusive means small, poorly fitted or top-dose-only effect; cell line not stated here; further: potency means the concentration at half of the fitted maximal effect; % of control where 0% means no effect; nearly all actives have a fitted effect of over 65% in size
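Stable cell line treated 24 h with compounds at 5 concentrations (CCCP controls), then fixed and immunostained for PINK1 plus nuclear and cell stains; PINK1 immunofluorescence quantified by laser-scanning microplate cytometry.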
Epigenetic derep = epigenetic control regulation, reporter derepression | AID 1865 | Potency, µM (highest dose often 53.9 µM), for the others: top-dose GFP activation, usual class: activators | murine LDR cells, GFP reporter derepression, 30 h | 280,000 tested, 0.2% active; further: potency means the concentration at half of the fitted maximal effect; % of control where 0% means no effect; nearly all actives have a fitted effect of over 60% in size
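Derepression of a silenced CMV-GFP reporter in murine LDR cells is scored by enumerating GFP-positive cells with a laser-scanning microplate cytometer after 30 hours of treatment at 37 C.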
uPA generation = cell surface uPA generation inhibition; AID 540303; 330,000 tested, 0.31% active; cell surface uPA generation assay, qHTS; Potency, µM (doses to about 38.3 µM), inactives show top-dose activity change, negative = inhibition, actives largely listed as inhibitors; active means well fitted inhibition curve with a large enough effect; inconclusive means small, poorly fitted or top-dose-only effect; inactive means no such curve, though single readings can be large or run the other way; tested in mouse RAW 264.7 cells; further: potency means the concentration at half of the fitted maximal effect; on the % scale 0 is the no-effect control and ±100 the full control effect; nearly all actives have a fitted effect of over 55% in size
p53 reactivation = mutant p53 re-activation in reporter cells | H1299 p53-A138V BP100-luciferase reporter, luminescence, 24 h | Potency, µM (series often up to 92.2 µM), inactives show top-dose activity change, positive = activation, hits mostly activators | 320,000 tested, 0.063% active | AID 504706; further: potency means the concentration at half of the fitted maximal effect; % of control where 0% means no effect; nearly all actives have a fitted effect of over 45% in size
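p53-null H1299 cells stably carrying temperature-sensitive p53-A138V and a BP100-luciferase reporter were pinned with compounds (4-point, 1:5 series) and held 24 hrs at 37 deg C. Luminescence was read 10 min after detection reagent.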
Active calls of the source: *; [ ] = another dose, or the depositor's remark. An excerpt weighted towards active compounds, which were near 0.62% of everything screened. Unless noted, the call rests on the fitted dose curve; in most records, active means well fitted curve in the direction sought with a large enough effect; inconclusive means small, poorly fitted or top-dose-only effect, or another doubt; inactive means no such curve, though single readings can be large; an effect the other way counts as inactive or inconclusive.

`O=C(COc1nc2ccccc2nc1N1CCOCC1)N1CCc2ccccc21` gave IL2 activator 94*, miR-21 reporter 2%, PINK1 modulator inconclusive, Epigenetic derep -1%, uPA generation 2% and p53 reactivation -1%.
CC1CCCCN1C(=O)c1cnn2c1NC(=C1CC1)C=C2C(F)F (stereo not drawn) was read as PINK1 modulator 0%.
Screening COc1ccc(NC(=O)c2cc3ccccc3oc2=O)c(OC)c1 returned IL2 activator 0, miR-21 reporter -40%, PINK1 modulator inconclusive, uPA generation 10% and p53 reactivation 25%.
COc1ccc(S(=O)(=O)Nc2ccccc2OC)cc1NC(=O)c1cc2ccccc2oc1=O was read as IL2 activator 0, miR-21 reporter -68%, PINK1 modulator 3%, Epigenetic derep 0%, uPA generation 1% and p53 reactivation 22µM*.
Screening Cc1ccccc1C(=O)Nc1nc(-c2ccc(Br)cc2)ns1 returned miR-21 reporter 11%, PINK1 modulator 25µM* and Epigenetic derep 1%.
Screening Cc1ccc2[nH]nc(C(=O)N3CCOc4ccc(CN5CCc6sccc6C5)cc4C3)c2c1 returned PINK1 modulator 4%.
For O=C(Nc1ccc(Cl)cc1)Nc1nnc(CSCc2ccc(Cl)cc2)s1 the results were IL2 activator 1, miR-21 reporter -4%, PINK1 modulator 11µM*, Epigenetic derep 0%, uPA generation 12% and p53 reactivation 0%.
OC1(c2ccc3c(c2)CN(Cc2ccco2)CCO3)CCN(c2ccccc2F)CC1 was read as PINK1 modulator 0%.
Screening CCCN1CCN(C(=O)c2cnn(-c3ncc4c(n3)-c3ccccc3CCC4)c2COC)CC1 returned PINK1 modulator 2%.
`CCSc1ncc(Cl)c(C(=O)Nc2sc3c(c2C(=O)NCc2cccnc2)CCCC3)n1` gave IL2 activator 2, miR-21 reporter -3%, PINK1 modulator 11µM*, Epigenetic derep 7%, uPA generation -21% and p53 reactivation -6%.
`CCSc1ncc(Cl)c(C(=O)Nc2sc3c(c2C(=O)NCCCOC)CCCC3)n1` gave miR-21 reporter -1%, PINK1 modulator 3% and Epigenetic derep 3.5µM*.
Screening CCNC(=O)c1c(NC(=O)c2nc(SCC)ncc2Cl)sc2c1CCCC2 returned PINK1 modulator 1%.
For CCCSc1ncc(Cl)c(C(=O)Nc2sc3c(c2C(N)=O)CCCC3)n1 the results were miR-21 reporter -2%, PINK1 modulator 8.9µM* and Epigenetic derep inconclusive.
Screening CCCSc1ncc(Cl)c(C(=O)Nc2sc3c(c2C(=O)NCCCOC)CCCC3)n1 returned PINK1 modulator 2%.
Screening COc1ccccc1N1CCN(c2nc(CNC(=O)C3CC34CCCC4)nc3ccccc23)CC1 (stereo not drawn) returned PINK1 modulator 0%.
Cc1cnc(C)c(-c2ccc(F)c3c2OC(CNC(=O)Cc2c(C)[nH]c4ccccc24)C3)n1 (stereo not drawn) was read as PINK1 modulator 0%.
Screening COc1ccc(NC(=O)c2c(NC(=O)CNCc3ccco3)sc3c2CCC3)cc1 returned IL2 activator 0, miR-21 reporter 3%, PINK1 modulator 6%, Epigenetic derep 25µM*, uPA generation -4% and p53 reactivation 0%.
Screening O=c1c2ccccc2cnn1-c1ccc(Cl)cc1 returned IL2 activator 0, miR-21 reporter -34%, PINK1 modulator 2%, Epigenetic derep -1%, uPA generation -10% and p53 reactivation 25µM*.
`O=c1c(Cl)c(Cl)cnn1-c1ccccc1` gave IL2 activator -4, miR-21 reporter inconclusive, PINK1 modulator -1%, Epigenetic derep inconclusive, uPA generation 3.5µM* and p53 reactivation -38%.
Screening O=C(NCCc1ccccn1)C1CC12CCN(C(=O)c1c(F)cccc1Cl)CC2 (stereo not drawn) returned PINK1 modulator 1%.
For Cc1ccnn1CC(=O)N1CCOc2c(cc(-c3ncc(C(F)(F)F)cc3Cl)cc2OCC2CCCO2)C1 (stereo not drawn) the results were PINK1 modulator 1%.
For Cc1c(C(=O)NCC2(N3CCOCC3)CCCC2)cnn1-c1nccc(-c2ccccc2F)n1 the results were PINK1 modulator 1%.
For c1ccc(-c2n[nH]c(-c3ccccn3)n2)cc1 the results were IL2 activator -2, miR-21 reporter -28%, PINK1 modulator -1%, Epigenetic derep 22µM*, uPA generation -5% and p53 reactivation inconclusive.
Screening c1ccc(-c2n[nH]c(-c3ccccn3)n2)nc1 returned IL2 activator -4, miR-21 reporter -16%, PINK1 modulator 1%[38.3 µM], Epigenetic derep 1%, uPA generation -1% and p53 reactivation inconclusive.
Screening Cc1ccc(C(=O)Nc2cccc(-c3nc(CNC(=O)C4CCCCC4)c(C)o3)c2)s1 returned PINK1 modulator 2%.
For O=C(Nc1ncc([N+](=O)[O-])s1)c1cccc([N+](=O)[O-])c1 the results were IL2 activator -4, miR-21 reporter 7%, PINK1 modulator 14µM*, Epigenetic derep -1% and uPA generation -1%.
Screening O=C(Nc1ncc(S(=O)(=O)c2ccc([N+](=O)[O-])cc2)s1)c1ccc2ccccc2c1 returned IL2 activator 0, miR-21 reporter -7%, PINK1 modulator 14µM*, Epigenetic derep 0%, uPA generation 5% and p53 reactivation 10%.
Screening O=C(Nc1ncc(S(=O)(=O)c2ccc([N+](=O)[O-])cc2)s1)c1cccnc1 returned IL2 activator 1, miR-21 reporter -1%, PINK1 modulator 2%, Epigenetic derep 9%, uPA generation -7% and p53 reactivation 14%.
COC(=O)c1cccc(C(=O)N2CCc3c(cnc(C)c3CNC(=O)/C=C/c3cccs3)C2)c1 was read as PINK1 modulator 1%.
For CCC(C)NC(=O)CSc1nc2cc3c(cc2c(=O)n1Cc1ccc(C(=O)NCCc2ccc(OC)c(OC)c2)cc1)OCO3 (stereo not drawn) the results were miR-21 reporter 10%, PINK1 modulator 0% and Epigenetic derep 11µM*.
`Cc1cc(=O)[nH]c(N/N=C/c2cc(C)n(CC(F)(F)F)c2C)n1` gave IL2 activator 3, miR-21 reporter 13%, PINK1 modulator 0%, Epigenetic derep 11%, uPA generation 0.25µM* and p53 reactivation 9%.
For CC(=O)Nc1cc(C(=O)OCC(=O)c2ccc(C)cc2)ccc1C the results were IL2 activator 1, miR-21 reporter -66%, PINK1 modulator 5%, Epigenetic derep -2%, uPA generation -5% and p53 reactivation 28µM*.

Random excerpt: 4 entries already listed
For O=C(Nc1ncc([N+](=O)[O-])s1)c1cccc([N+](=O)[O-])c1 the results were IL2 activator -4, miR-21 reporter 7%, PINK1 modulator 14µM*, Epigenetic derep -1% and uPA generation -1%.
Screening Cc1ccc(C(=O)Nc2cccc(-c3nc(CNC(=O)C4CCCCC4)c(C)o3)c2)s1 returned PINK1 modulator 2%.
For Cc1ccnn1CC(=O)N1CCOc2c(cc(-c3ncc(C(F)(F)F)cc3Cl)cc2OCC2CCCO2)C1 (stereo not drawn) the results were PINK1 modulator 1%.
`O=c1c(Cl)c(Cl)cnn1-c1ccccc1` gave IL2 activator -4, miR-21 reporter inconclusive, PINK1 modulator -1%, Epigenetic derep inconclusive, uPA generation 3.5µM* and p53 reactivation -38%.
